Data published in article PMC7571164, “One Pot Synthesis of Micromolar BACE-1 Inhibitors Based on the Dihydropyrimidinone Scaffold and Their Thia and Imino Analogues” (Molecules, 2020).

Sequences of proteins named here, by UniProt entry; tags and fusion partners are left off. Residues count along the entry.
UniProt P56817, 46-457 limits assumed: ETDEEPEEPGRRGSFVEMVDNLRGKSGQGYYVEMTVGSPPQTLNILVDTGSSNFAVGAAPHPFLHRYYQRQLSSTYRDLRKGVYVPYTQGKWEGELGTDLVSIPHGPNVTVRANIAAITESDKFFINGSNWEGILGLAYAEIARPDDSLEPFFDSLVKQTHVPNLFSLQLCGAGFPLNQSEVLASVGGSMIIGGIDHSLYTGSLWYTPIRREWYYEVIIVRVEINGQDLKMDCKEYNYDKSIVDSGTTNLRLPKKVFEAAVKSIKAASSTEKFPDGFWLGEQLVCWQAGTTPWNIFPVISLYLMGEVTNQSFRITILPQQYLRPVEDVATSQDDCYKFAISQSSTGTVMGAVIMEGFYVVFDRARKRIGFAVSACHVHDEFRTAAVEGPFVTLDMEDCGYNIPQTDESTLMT

Biological target: Recombinant human β-Secretase (BACE-1) (Homo sapiens, UniProt P56817)
Assay: BACE1 inhibition assay with fluorogenic substrate
Conditions: read-out: Experimental IC50; value of the racemic mixture, printed in Table 2 beside the enantiomer

Row | IC50 | SMILES
1 | 200 nM | CCOC(=O)C1=C(C)NC(=N)N[C@@H]1c1ccc2ccccc2c1
2 | 200 nM | CCOC(=O)C1=C(C)NC(=N)N[C@H]1c1ccc2ccccc2c1

Row | SMILES | IC50
3 | CCOC(=O)C1=C(C)NC(=N)N[C@@H]1c1ccccc1 | 500 nM
